A selection: hits, their analogues and other compounds. The true share with any hit is near 0.34%.
miR-21 FLuc = miR-21 reporter, rising signal; Potency, µM (titrated, usually from 38.3 µM), without a hit: at the highest dose reporter change, positive = more light; AID 2288; 340,000 tested, under 10 active; HeLa miR-21 FLuc reporter, luciferase, 48 h; active = well fitted rising curve with a large enough effect; inconclusive = small, poorly fitted or top-dose-only effect; inactive = no such curve, though single readings can be large or run the other way;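 note: % of control where 0% means no effect; miR-21 action dims this reporter so a rising signal means less miR-21 action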
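Compounds were titrated across several concentrations (up to approximately 40 uM) and incubated 48 hours with HeLa miR-21-FLuc reporter cells (miR-21 target sequence downstream of FLuc, endogenous miR-21). Readout was firefly luciferase luminescence after lytic detection reagent.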
TRPML1 ag = agonists of human TRPML1 channel; Q9GZU1; TRPML1-expressing cells, Ca2+ dye fluorescence, FDSS; activation, % (test concentration not listed); 0.12% of 410,000 active; in the data active = activation above about 50%; inconclusive = mostly about 30% to 49%; also: 0% is about no effect
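Tetracycline-induced TRPML1-DL cells are seeded and incubated overnight before loading with a no-wash Ca2+ dye and quencher. Agonist activity is taken from the 110 s fluorescence read following compound pin-transfer on an FDSS, before EC80 54-4 challenge.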
TRPML1 blocker = human mucolipin-1 channel inhibition | Q9GZU1 | TRPML1-inducible cells, Ca2+ dye fluorescence, FDSS; hits give low values; inhibition of EC80 agonist-evoked calcium signal | activity change, negative = inhibition, % (test concentration not listed) | 0.02% of 390,000 active | AID 624415; in the data active = activity change below about -50%; inconclusive = between about -30% and that limit;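 also: stimulus is agonist 54-4 at its EC80 concentration; % is scaled to controls: 0 for no effect and ±100 for the full control effect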
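TRPML1-DL cells, Tet-induced overnight (~16 h, 37 °C) at 1,500 cells/well, were loaded with Ca8 no-wash dye plus quencher for 45-90 min at room temperature. Compounds were pinned during FDSS kinetic reading; agonist 54-4 at EC80 (4 uM final) then added.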
uPA generation = cell surface uPA generation inhibition; cell surface uPA generation assay, qHTS; Potency, µM (series often up to 38.3 µM), for inactives: at the highest dose activity change, negative = inhibition, usual class: inhibitors; 0.31% of 330,000 active; active = well fitted inhibition curve with a large enough effect; inconclusive = small, poorly fitted or top-dose-only effect; inactive = no such curve, though single readings can be large or run the other way; tested in mouse RAW 264.7 cells; also: potency is read from the fitted curve at half-maximal effect; % is scaled to controls: 0 for no effect and ±100 for the full control effect; nearly all actives have a fitted effect of over 55% in size
The depositor's hits bear a star; ? = inconclusive; · = no result given.

Values run as follows: TRPML1 blocker	TRPML1 ag	miR-21 FLuc	uPA generation
- O=C(O)c1cccc(CN2C(=O)c3ccccc3C2=O)c1
  -7	0	-2%	1%
- CCN(CC)c1ccc2c(c1)oc(=O)c1c(Cl)cc(=O)oc12
  -13	69*	-4%	-8%
- Cc1ccc(C23OCCN2CCn2nc4ccccc4c23)cc1 (centres undefined)
  -5	0	·	14%
- N#Cc1ccc(C23OCCN2CCn2c3c3ccccc3[n+]2[O-])cc1 (centres undefined)
  -8	0	·	2.2µM*
- C/C(=N\Nc1nc(C)cc(-c2ccccc2)n1)c1cccc(N)c1
  3	0	12%	10µM*
- C/C(=N\Nc1nc(C)cc(-c2ccccc2)n1)c1ccc(O)cc1
  -9	1	13%	10µM*
- C/C(=N\Nc1nc(C)cc(-c2ccccc2)n1)c1ccccc1
  -2	0	2%	-5%
- Cc1c(NC(=O)C(C)(C)Oc2ccc(Cl)cc2)cccc1-c1nc2ncccc2o1
  -10	2	6%	·
- CC(=O)Nc1ccc(/C=C/c2ccnc3ccccc23)cc1
  ·	-1	·	·
- CCN(CC)S(=O)(=O)c1ccc(C(=O)Nc2ccc(OCC(=O)N3CCOCC3)cc2)cc1
  -5	0	-1%	2%
- CCCCOc1ccc(C(=O)Nc2ccc(OCC(=O)N3CCOCC3)cc2)cc1
  -12	0	-3%	7.1µM*
- CC(C)(C)CC(C)(C)N=C1Nc2ccc([N+](=O)[O-])cc2N[C@]12C[C@H]1CCCC(=O)N3CC[C@@H](C2)[C@@H]13
  ·	5	·	·
- Cc1cccc(N(Cc2cc(=O)[nH]c3ccccc23)C(=O)CCl)c1
  -9	2	?	7.1µM*
- Cc1ccc(Cl)cc1NC(=O)Nc1cn(CC(C)C)c(=O)c2ccccc12
  2	57*	-6%	·
- COc1ccc(NC(=O)Nc2cn(CC(C)C)c(=O)c3ccccc23)c(OC)c1
  8	2	-1%	·
- Cc1ccc(S(=O)(=O)N2C[C@@H]3CCCC[C@@H]3[C@@H](C)[C@H]2c2cn(Cc3ccccc3)c3ncccc23)cc1
  71	1	·	10µM*
- Cc1ccc(S(=O)(=O)N2C[C@@H]3CCCC[C@@H]3[C@@H](C)[C@H]2c2cn(Cc3ccccc3)c3ccccc23)cc1
  0	0	·	?
- N/C(=N\OC(=O)C12CC3CC(CC(C3)C1)C2)c1ccncc1
  12	61*	-2%	4%
- Cc1ccc(/C(N)=N/OC(=O)C23CC4CC(CC(C4)C2)C3)cc1
  -3	3	-42%	1%
- Cc1ccnc2ccc([N+](=O)[O-])cc12
  ·	-1	·	·

Single records, from the list above. Order of screens: TRPML1 blocker	TRPML1 ag	miR-21 FLuc	uPA generation
Cc1ccc(S(=O)(=O)N2C[C@@H]3CCCC[C@@H]3[C@@H](C)[C@H]2c2cn(Cc3ccccc3)c3ncccc23)cc1 across the screens: 71	1	·	10µM*
Cc1c(NC(=O)C(C)(C)Oc2ccc(Cl)cc2)cccc1-c1nc2ncccc2o1 across the screens: -10	2	6%	·

Next section:
Values run as follows: TRPML1 blocker	TRPML1 ag	miR-21 FLuc	uPA generation
- Cc1ccccc1NC(=O)C(=Cc1ccc(C(=O)O)cc1)C(=O)Nc1ccccc1C
  5	0	21%	-11%
- CC(=O)/C(=C/c1ccccc1)C(=O)Nc1ccccc1C
  2	0	1%	2.8µM*
- CC(C)(C)n1ncc2c(=O)n(Cc3ccc([S+](=O)([O-])N4CCOCC4)cc3)cnc21
  -3	0	·	·
- COc1ccc(C(=O)C(CCCCC(CN(C)C)C(=O)c2ccc(OC)cc2)CN(C)C)cc1 (centres undefined)
  14	0	-26%	-13%
- CCOc1ccc(C(=O)C(CCC(CN(C)C)C(=O)c2ccc(OCC)cc2)CN(C)C)cc1 (centres undefined)
  -6	11	?	1.1µM*
- CN(C)c1ccc(/C=C/c2nc3ccccc3c(=O)n2-c2ccc(C(=O)O)cc2)cc1
  19	64*	-10%	-6%
- Cc1ccccc1C(=O)Nc1ccccc1C(=O)N1CCC(C)CC1
  -12	54*	0%	1%
- CC1CCN(C(=O)c2ccccc2NC(=O)Nc2ccccc2)CC1
  -5	0	-5%	-4%
- COc1ccc(CCn2c(=S)[nH]c(=O)c3cccnc32)cc1OC
  ·	-1	·	·
- CS(=O)(=O)N1CCN(Cc2cc3nc(-c4cccc5[nH]ncc45)nc(N4CCOCC4)c3s2)CC1
  ·	-1	·	·
- O=C(c1ccc(Cl)c(S(=O)(=O)N2CCOCC2)c1)N(Cc1ccco1)Cc1cccs1
  23	1	·	1.1µM*
- CCCCNc1ccc(/C=C2\C=Cc3ccccc32)cc1
  ·	0	·	·
- C[C@@H]1[C@H](c2ccccc2)OCCS(=O)(=O)N1Cc1cccc(C(F)(F)F)c1
  ·	0	·	·
- Cn1nnnc1Sc1ncnc2scc(-c3ccc(-c4ccccc4)cc3)c12
  ·	·	·	2µM*
- Cn1nnnc1Sc1ncnc2scc(-c3cccc(C(F)(F)F)c3)c12
  ·	·	·	8.9µM*
- NC(=O)c1c(NC(=O)CS(=O)(=O)c2ccc(Cl)cc2)sc2c1CCCC2
  ?	0	0%	·

For reference, part of the list above.
Values run as follows: TRPML1 blocker	TRPML1 ag	miR-21 FLuc	uPA generation
- CCN(CC)S(=O)(=O)c1ccc(C(=O)Nc2ccc(OCC(=O)N3CCOCC3)cc2)cc1
  -5	0	-1%	2%
- CCCCOc1ccc(C(=O)Nc2ccc(OCC(=O)N3CCOCC3)cc2)cc1
  -12	0	-3%	7.1µM*
- CC(C)(C)CC(C)(C)N=C1Nc2ccc([N+](=O)[O-])cc2N[C@]12C[C@H]1CCCC(=O)N3CC[C@@H](C2)[C@@H]13
  ·	5	·	·

Screens (PubChem)
